## Binding of CDR-mutated scFvs to a peptide of the spike HR2 region

The target is the same throughout: PDVDLGDISGINAS, from the HR2 region of SARS-CoV-2 spike.

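The parent was found by panning a naive human phage display library on the peptide. Designed CDR sequences, proposed from the first random library and measured here. Several design methods are mixed in this list. Affinity was read by AlphaSeq, a pooled yeast mating assay with surface-displayed partners. Binding brings cells together so that they mate, and sequencing counts the barcode pairs among the diploids. The ratio of observed to expected reads was calibrated, replicate by replicate, on BCL2-family standards whose Kd was known from biolayer interferometry. The assay was run in six technical replicates.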

The variants keep the light chain, the linker and the frameworks of Ab-14 (scFv order VH, the linker GGGGSGGGGSGGGGS, VL).
VH: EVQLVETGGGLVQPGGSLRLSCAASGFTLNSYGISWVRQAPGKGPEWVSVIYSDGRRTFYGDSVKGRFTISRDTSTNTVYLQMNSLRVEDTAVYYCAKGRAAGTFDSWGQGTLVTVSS
VL: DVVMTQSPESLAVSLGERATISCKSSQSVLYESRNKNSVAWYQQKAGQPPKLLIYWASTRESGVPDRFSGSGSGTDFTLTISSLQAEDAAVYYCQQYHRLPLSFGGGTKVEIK

Each variant is given by its three heavy chain CDRs, as the data file delimits them; those of the parent are GFTLNSYGIS, VIYSDGRRTFYGDSVK, GRAAGTFDS. Variants here have more than six changes. The Kd shown is the geometric mean over detected replicates; a lower Kd is a better binder. "nd" means that the variant was in the library but no mating with the target was seen in any replicate; the authors take this as a sign of poor binding, and no number exists. The authors' rule: three or more of the six replicates give a measured affinity, fewer mean a poor binder. Values of this round are not directly comparable with the first-round values of the same sequences. As a blank, each scFv also met three strains without target: over all heavy chain designs, 1% of these pairings were detected, typically at 120 nM and seldom below 7.0 nM. Of ten entries with the parent sequence, four were seen in most replicates (averages 2.2 nM to 240 nM), three in one and three in none, so single entries are noisy.

With GQDLNEYGIS / VIYADGIRTAYAISVK / GYHGSQFDI the result was nd (0 of 6 replicates). Variant GFDLNEYGIS / VIYADGVRTFYTDSVK / GEVAGTFDV gave 550 pM (6 of 6 replicates). Variant GFDLNEYGIS / VIYADGRRQFYADSVK / GNQAGTFDV showed 570 pM (6 of 6 replicates). With GFNLDEYGIS / VIYADGVRTFYSNSVK / GYGGTFMEG the result was 11 µM (1 of 6 replicates). For GFDLNEYGIS / VIYADGMRKAYSDSVK / GNVAGTFDL, the assay gave 180 pM (6 of 6 replicates). With GFDLEKYGIS / VIYADGKRVAYQDAVK / GGTGGMFMS the result was nd (0 of 6 replicates). Variant GFSIDEYGIS / VIYADGVRTAVDPSFK / GQMAGFFDE gave nd (0 of 6 replicates).

Variant GFDFQEYGIS / VIYADGMRTNALDDVK / GNIGATFDD showed nd (0 of 6 replicates). Variant GFDLEDYGIS / VIYADGMRTAYADSVK / GENAGTFDI showed 4.5 nM (6 of 6 replicates). For GFDINEYGVS / VIYADGNRTMYQDQVK / GINGGSFVL, the assay gave nd (0 of 6 replicates). For GFDLNEYGIS / VIYADGSRTVYADSVK / GEVAGTFDQ, the assay gave 3.1 nM (6 of 6 replicates). Variant GFDLESYGIS / VIYADGSRTAYADSVK / GNVAGTFDS gave 1.5 nM (6 of 6 replicates). With GFDLDEYGIS / VIYADGMRTAYADNVK / GEVAGTFDI the result was 1.7 nM (6 of 6 replicates). Variant GFDLNEYGIS / VIYADGMRTAYSDSVK / GSNAGTFDL showed 290 pM (6 of 6 replicates).

Variant GFDLDEYGIS / VIYADGRRTFYTDSVK / GGNAGTFDQ showed 920 pM (6 of 6 replicates). For GFDLNEYGIS / VIYADGRRTAYADSVK / GSEAGTFNM, the assay gave 220 pM (6 of 6 replicates). Variant GDDLEDYGIS / VIYADGRRRAYQENVK / GEYAGYFDV showed nd (0 of 6 replicates). Variant GFDLDEYGIS / VIYADGMRVSYSQNVK / GRGGVVFIA showed nd (0 of 6 replicates). Variant GFDLDEYGIS / VIYADGKRTAYADSVK / GNQAGTFDM gave 290 pM (6 of 6 replicates). Variant GFDLNEYGIS / VIYADGMRTYYADDVK / GEVAGTFDL gave 290 pM (6 of 6 replicates). For GFDLDEYGIS / VIYADGQRTAYIDSVK / GNQAGTFDV, the assay gave 630 pM (6 of 6 replicates).

Variant GFDLEEYGIS / VIYADGIRQSAQDNVK / GLLSGMGIT gave nd (0 of 6 replicates). Variant GQDLNEYGIS / VIYADGQRTSYAQSVK / GAGDITGLV gave nd (0 of 6 replicates). Variant GFDLNEYGIS / VIYADGRRTFYIDSVK / GSEAGTFNM gave 220 pM (6 of 6 replicates). Variant GFDLNEYGIS / VIYADGSRTFYADSVK / GETAGTFDQ showed 230 pM (6 of 6 replicates). Variant GFDLDEYGIS / VIYADGVRTFYADSVK / GEVAGTFDV gave 440 pM (6 of 6 replicates). Variant GFDLNEYGIS / VIYADGKRTAYADSVK / GQNAGTFDM gave 660 pM (6 of 6 replicates). Variant GFDLNEYGIS / VIYADGRRTFYSDSVK / GNVAGTFDT showed 380 pM (6 of 6 replicates).

Variant GFDLESYGIS / VIYADGSRTAYADSVK / GNVAGTFDF showed 350 pM (6 of 6 replicates). For GFDLDQYGIS / VIYADGSRSYYADSVK / GHEGGILYV, the assay gave nd (0 of 6 replicates). For GFDLNEYGIS / VIYADGMRTYYADSVK / GNNAGTFDL, the assay gave 610 pM (6 of 6 replicates). Variant GFDLNEYGIS / VIYADGVRKYYADDVK / GNVAGTFDV showed 190 pM (6 of 6 replicates). Variant GFDLNEYGIS / VIYADGRRTAYSDSVK / GTVAGTFDS gave 210 pM (6 of 6 replicates). For GESLEEYGIS / VIYADGIREQYVDSVK / GEQGGYFVV, the assay gave 45 nM (1 of 6 replicates). For GFDLNEYGIS / VIYADGMRTFYADSVK / GNNAGTFDL, the assay gave 10 nM (2 of 6 replicates).

With GFDLNEYGIS / VIYADGVRTFYSDSVK / GENAGTFDV the result was 600 pM (6 of 6 replicates). With GFDLNEYGIS / VIYADGMRTFYADSVK / GEIAGTFDQ the result was 1.1 nM (6 of 6 replicates). Variant GFDLDEYGIS / VIYADGTRSGYTANVK / GEAAGFTMF gave nd (0 of 6 replicates).

Extract of 2 entries:

For GFDLNEYGIS / VIYADGMRKAYSDSVK / GNVAGTFDL, the assay gave 180 pM (6 of 6 replicates).
For GFDLDEYGIS / VIYADGKRTAYADSVK / GNQAGTFDM, the assay gave 290 pM (6 of 6 replicates).

Values reported by Li et al. 2023, doi:10.1038/s41467-023-39022-2 (FLAb copy).